The source of these data is PubChem BioAssay AID1945 (The Scripps Research Institute Molecular Screening Center, 2009).

This is a selection; strong and weak results do not stand in their true shares. Activity calls are given as the source filed them. No stated cut-off is given here; in the data, active means inhibition above about 37%; inactive means the rest.

Usually inhibition stands for the change of the read-out against control, counted positive when it falls.

A short description of this experiment: compounds displacing fluorescent DNA intercalator, artefact control for HCV NS3 helicase inhibitor project, biochemical, FID fluorescence, triplicate (AID 1945).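 Further: 0% = vehicle and 100% = reference compound; higher means more displacement of ethidium bromide from the DNA hairpin.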 The conditions noted are these: DNA fluorescent intercalator displacement, at 7.9 µM, active compounds read high.
As to `Nc1cccc2c([As](=O)(O)O)cccc12`, the inhibition was inactive: -2.59%. Regarding `C[N+]1=C2C=CC=CC=C2SC12C([N+](=O)[O-])=CC([N+](=O)[O-])=C[C-]2[N+](=O)[O-]` (stereo not drawn), the inhibition is inactive: 18.5%. In the case of `O=[N+]([O-])c1cc([N+](=O)[O-])c(CCN2CCOCC2)c([N+](=O)[O-])c1`, the inhibition is inactive: 31.9%.
